Data taken from article PMC8406172, “Mechanism of DNA Interaction and Translocation by the Replicase of a Circular Rep-Encoding Single-Stranded DNA Virus” (mBio, 2021).

System: Nc1ncnc2c1ncn2[C@@H]1O[C@H](COP(=O)(O)OP(=O)(O)OP(=O)(O)O)[C@@H](O)[C@H]1O
Assay: purified protein
Conditions: 66 nM Rep, room temperature; copurifying DNA present

PCV2 Rep (replicase) (Porcine circovirus 2)
K0.5: 261.1 µM | kcat: 0.63 s⁻¹
